According to PubChem BioAssay AID1511 (Johns Hopkins Ion Channel Center, 2009):
Only a part is listed here, and it is no random draw. Activity calls are given as the source filed them.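 How the source made its calls: active means activation above the mean of controls blocked by dofetilide plus 5 SD; inactive means the rest.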

Chains of the proteins cited; added tags and fusions are not shown. Lines headed by an entry give the natural chain unless they say otherwise; changes in a name come on top.
UniProt Q12809: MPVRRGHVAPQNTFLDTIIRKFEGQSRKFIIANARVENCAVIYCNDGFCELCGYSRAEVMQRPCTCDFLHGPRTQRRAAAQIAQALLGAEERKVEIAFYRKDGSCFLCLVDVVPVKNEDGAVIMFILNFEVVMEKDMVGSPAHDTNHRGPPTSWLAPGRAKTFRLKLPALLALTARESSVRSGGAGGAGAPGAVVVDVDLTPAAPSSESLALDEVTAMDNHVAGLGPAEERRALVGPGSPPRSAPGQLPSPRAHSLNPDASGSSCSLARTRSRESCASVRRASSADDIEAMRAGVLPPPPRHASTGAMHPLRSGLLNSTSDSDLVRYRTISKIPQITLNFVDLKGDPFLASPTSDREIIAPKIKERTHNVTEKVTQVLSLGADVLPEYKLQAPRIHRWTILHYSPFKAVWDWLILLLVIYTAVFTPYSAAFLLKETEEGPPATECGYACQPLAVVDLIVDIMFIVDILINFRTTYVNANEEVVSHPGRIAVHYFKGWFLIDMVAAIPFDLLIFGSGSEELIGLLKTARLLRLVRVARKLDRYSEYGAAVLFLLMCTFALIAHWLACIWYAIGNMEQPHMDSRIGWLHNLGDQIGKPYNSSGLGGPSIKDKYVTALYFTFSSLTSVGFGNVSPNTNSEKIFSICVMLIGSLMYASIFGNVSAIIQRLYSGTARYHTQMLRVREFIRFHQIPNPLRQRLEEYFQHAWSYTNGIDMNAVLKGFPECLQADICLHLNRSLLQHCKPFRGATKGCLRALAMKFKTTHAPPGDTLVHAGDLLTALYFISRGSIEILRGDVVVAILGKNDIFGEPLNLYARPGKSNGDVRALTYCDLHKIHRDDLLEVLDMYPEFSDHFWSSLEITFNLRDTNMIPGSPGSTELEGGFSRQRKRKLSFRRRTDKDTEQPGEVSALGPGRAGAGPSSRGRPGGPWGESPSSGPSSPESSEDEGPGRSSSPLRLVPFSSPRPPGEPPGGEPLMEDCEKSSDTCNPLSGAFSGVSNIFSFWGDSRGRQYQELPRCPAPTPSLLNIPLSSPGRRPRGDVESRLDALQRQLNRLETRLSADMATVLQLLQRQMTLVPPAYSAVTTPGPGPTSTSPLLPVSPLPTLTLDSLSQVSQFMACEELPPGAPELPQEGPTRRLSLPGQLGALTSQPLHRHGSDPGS

target: Voltage-gated inwardly rectifying potassium channel KCNH2 (Homo sapiens) (UniProt Q12809); test: PubChem AID 1511; conditions: CHO-hERG, FluxOR thallium flux, dofetilide IC70 present; at 10 µM; hits give high values;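 further: thallium influx through hERG after potassium depolarization seen as dye fluorescence rise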

SMILES	activation (rescue from dofetilide block), less the hit threshold
CCc1nc2c(n1)c1c(non1O)c1c2no[n+]1[O-]	inactive: -33.5%
CC(=O)N1C2C3N(C(C)=O)C1C1N(C(C)=O)C(C(N1C(C)=O)N3C(C)=O)N2C(C)=O	inactive: -4.86%
O=[N+]([O-])c1cccc2n[nH]nc12	inactive: -2.54%
COc1ccc(C2=NCC(CBr)S2)cc1 (configuration not stated)	inactive: -15.4%
O=C(O)CNc1ccc([As](=O)(O)O)cc1	inactive: -8.78%
O=[N+]([O-])c1cccc(NC2=NCC(CBr)S2)c1 (configuration not stated)	inactive: -5.83%
O=[N+]([O-])c1ncn(CCn2ncnc2[N+](=O)[O-])n1	inactive: -21.4%
CC(C)(C)C(=O)NC(Sc1ccncn1)C(Cl)(Cl)Cl (configuration not stated)	inactive: -7.62%
O=C(Nc1cc([As](=O)(O)O)ccc1O)c1ccccc1	inactive: -8.7%
Cc1cc(SC(NC=O)C(Cl)(Cl)Cl)ncn1 (configuration not stated)	inactive: -5.88%
O=P(Nc1ccccn1)(c1cccc2ccccc12)c1cccc2ccccc12	inactive: -2.63%
O=[N+]([O-])c1ccc(Nc2ccc(Oc3ccc([N+](=O)[O-])cc3[N+](=O)[O-])cc2)c([N+](=O)[O-])c1	inactive: -12.5%
CCOC(=O)Nc1cccc([As](=O)(O)O)c1	inactive: -0.66%
CCCCOc1ccc(C(=O)NCC2(N3CCCCC3)CCCCC2)cc1OC	inactive: -7.58%
Cc1cc(SC(NC(=O)c2ccccc2)C(Cl)(Cl)Cl)nc(C(C)C)n1 (configuration not stated)	inactive: -8.95%
CCOC(=O)Nc1ccc([As](=O)(O)O)c(O)c1	inactive: -4.81%
CCC(C)N(CC(C)C)C(=S)SC(NC(C)=O)C(Cl)(Cl)Cl (configuration not stated)	inactive: -7.34%
O=C(OC1CN2CCC1CC2)c1cccc([N+](=O)[O-])c1 (configuration not stated)	inactive: -4.22%
CCOC(=O)c1ccc(NC(=O)C(C)(CCl)SC)cc1 (configuration not stated)	inactive: -4.2%
O=C(COc1ccccc1)OC1CN2CCC1CC2 (configuration not stated)	inactive: -0.6%
O=C(Nc1ccncc1[N+](=O)[O-])c1ccc([N+](=O)[O-])cc1[N+](=O)[O-]	inactive: -9.05%

SMILES	activation (rescue from dofetilide block), less the hit threshold
COc1ccc(N/C(=N/P(=O)(N2CCOCC2)N2CCOCC2)N2CCOCC2)cc1	inactive: -9.08%
COc1ccc2nc(NP(=O)(c3ccccc3)c3ccccc3)sc2c1	inactive: -6.29%
COc1cc(I)ccc1[As](=O)(O)O	inactive: -10.5%
Cc1c2c(nc3ccccc13)SC(C(Cl)Cl)C2 (configuration not stated)	inactive: -5.34%
O=C(OC1CN2CCC1CC2)C12CC3CC(CC(C3)C1)C2 (configuration not stated)	inactive: -4.48%
Cc1cc(=O)[nH]c(N[N+](=O)[O-])n1	inactive: -12.5%
CC(C)NC(=O)NP(=O)(Oc1ccccc1)Oc1ccccc1	inactive: -4.25%
CCN(CC)C(=S)SC(NC=O)C(Cl)(Cl)Cl (configuration not stated)	inactive: -20.5%
O=[N+]([O-])c1cc([N+](=O)[O-])c(-c2ccn[nH]2)s1	inactive: -1.07%
ClCCSc1nnc(-c2cccnc2)o1	inactive: -1.5%
CC(C)c1ccc(OP(=O)(Nc2ccccn2)Oc2ccccc2F)cc1 (configuration not stated)	inactive: -3.42%
Cc1ccc(OP(=O)(Nc2ccc([N+](=O)[O-])cn2)Oc2ccc(C)cc2)cc1	inactive: -12.1%
CC(Cc1ccc(O)cc1)NCC(O)c1cc(O)cc(O)c1 (configuration not stated)	inactive: -2%
Cc1ccc2nc3c(c(C)c2c1)CC(C(Cl)Cl)S3 (configuration not stated)	inactive: -9.55%
C[As](=O)(O)c1cccc(C(=O)O)c1	inactive: -7.25%
O=[As](O)(c1ccc(O)cc1)c1ccccc1O	inactive: -2.59%
N#CCCN(C(=O)COC(=O)C(O)(c1ccccc1)c1ccccc1)c1ccc(F)cc1	inactive: -7.79%
CN(C(=O)Cc1ccccc1)[C@@H]1CC[C@]2(CCCO2)C[C@H]1N1CCCC1	inactive: -6.33%
CCOP1(=S)c2c(C)nn(CCC#N)c2N=C(c2ccc(F)cc2)N1C (configuration not stated)	inactive: 0.93%
O=[N+]([O-])c1ccc2c(c1)nnn2O	inactive: -6.36%
CN(C)C(=O)c1cc([N+](=O)[O-])cc2c1-c1c(cc([N+](=O)[O-])cc1[N+](=O)[O-])C2=O	inactive: -22.2%

SMILES	activation (rescue from dofetilide block), less the hit threshold
CN(C(=O)Cc1ccc(Cl)c(Cl)c1)[C@H]1CC[C@@]2(CCCO2)C[C@@H]1N1CCCC1	inactive: -3.93%
NC(=O)Nc1ccc([As](=O)(O)O)cc1	inactive: -3.92%
O=C(O)COc1ccc([As](=O)(O)O)cc1[N+](=O)[O-]	inactive: -13.5%
Nc1ccccc1[As](=O)(O)c1ccccc1	inactive: -3.12%
CCOP1(=S)c2c(C)nn(CCC#N)c2N=C(c2ccccc2F)N1C (configuration not stated)	inactive: -4.29%
O=P(Nc1nccs1)(Oc1ccccc1)Oc1ccccc1	inactive: -7.48%
O=P(Nc1nccs1)(c1ccccc1)c1nc2ccccc2s1 (configuration not stated)	inactive: -10.5%
CS(=O)(=O)c1cc([N+](=O)[O-])c2no[n+]([O-])c2c1	inactive: -3.93%
COc1cc(C2NCCC3(OCCO3)C2(C)C)cc(OC)c1OC (configuration not stated)	inactive: -2.72%
CCOP(=O)(Nc1cccc2ccccc12)OCC	inactive: -6.88%
Nc1cccc2c([As](=O)(O)O)cccc12	inactive: -7.76%
Cc1ccc(NCCc2c([N+](=O)[O-])cc([N+](=O)[O-])cc2[N+](=O)[O-])cc1	inactive: -7.94%
CCCOP(=S)(Nc1nc(N)cc(=O)[nH]1)OCCC	inactive: -5.59%
Cc1cccc(OCC(=O)OC2CN3CCC2CC3)c1 (configuration not stated)	inactive: -8.81%
O=[As](O)(c1cccc(O)c1)c1cccc(O)c1	inactive: -14%
O=C(OC1CN2CCC1CC2)c1ccc(Cl)cc1 (configuration not stated)	inactive: -8.7%
O=[As](O)(O)c1cccnc1	inactive: -5.55%
COc1cc(C(=O)NCC2(N3CCOCC3)CCCCC2)cc(Cl)c1OC(C)C	inactive: -7.04%
CS(=O)(=O)c1ccc(Cl)c(NC(=O)COC(=O)C(O)(c2ccccc2)c2ccccc2)c1	inactive: -15%
CN(C(=O)Cc1ccc(Cl)c(Cl)c1)[C@@H]1CCCC[C@H]1N1CCCC1	inactive: -5.61%
